In patent publication EP4420684A1, “DNA TOXIC DIMER COMPOUND AND CONJUGATE THEREOF” (Systimmune, Inc., priority 2022, dated 2023):

Tested on: N87 tumor cells
Assay: In vitro activity test (MTS, 5 days), growth inhibition of N87 cells
Type: cell-based
Conditions: 120 h
Description: • Cells: derived from the Cell Bank of the Chinese Academy of Sciences; • Tumor cell culture medium: Gibco™; • Fetal Bovine Serum (FBS): BIOWEST™;
• Growth medium (with 10% FBS, Penicillin/streptomycin (100 U/mL); • Assay medium (with 1% FBS, Penicillin/streptomycin (100 U/mL);
The biosafety cabinet was turned on for UV light irradiation 30 min in advance, and subsequently ventilated for 3 minutes. The growth medium, assay medium, D-PBS and trypsin were preheated in a 37°C thermostatic water bath, after which the surface was sterilized with alcohol and placed in the biosafety cabinet. […]
The MTS reagent was removed from the test samples after 5 days of action, thawed at room temperature and protected from light, vortexed and mixed thoroughly, and then 20 µL of Cell Titer One Solution Reagen MTS reagent was added along the side wall of the wells for every 100 µL of cell culture volume in a biosafety cabinet. […] After the end of the reaction, took out the 96-well plate, placed in the enzyme labeling instrument to detect the OD490 nm absorbance value, and performed the data recording, organization and storage.

With `COc1ccc(C2=CN3C(=O)c4cc(OC)c(OCC56CC(C(=O)N7C[C@@H](CCl)c8c7cc(O)c7cccc(C)c87)(C5)C6)cc4N=C[C@@H]3C2)cc1` [Compound A] the IC50 was 820 pM.
